How the values were obtained:
Assay in all cases: AFC immunostaining of fixed cells, confocal microscopy
Format in all cases: cell-based
Details in all cases: AFC 5 μg/mL, 1 h at RT
[1] = test system: Her2-non overexpressing cell line MDAMB468
Method: (§1) In a similar manner, as described above under “Staudinger-induced thiol addition with alkynyl-phosphonites for the generation of Antibody Drug Conjugates (ADCs)” the fluorescent dye Cy5 was conjugated to Trastuzumab to generate an antibody-fluorophore conjugate. Synthesis of Cy5-O-ethyl-P-alkynyl-phosphonamidate was conducted as described above under “Introduction of the alkyne-phosphonamidate moiety by generic building blocks via an amide bond”. The obtained Phosphonamidate-AFC conjugates were evaluated by immunostaining of two different Her2-overexpressing cell lines BT474 and SKBR3. The Her2-non overexpressing cell line MDAMB468 was used as a control to proof Her2 selectivity.
(§2) BT474, SKBR3 and MDAMB468 were seeded on sterile cover slips and incubated ON at 37° C., 5% CO2 for cell attachment. Cells were washed three times with 1×PBS prior to fixation for 10 min in 1×PBS/4% PFA (formaldehyde). Fixation was stopped by the addition of an equal volume 1×PBST (PBS+0.05% Tween20) followed by two more washes with PBST. AFCs were added to a final concentration of 5 μg/mL and incubated for 1 h at RT. Unbound AFC was removed by three washes with PBS.
(§3) Images were acquired on a Leica SP5 confocal microscopy system equipped with a 63×1.40 Oil immersion objective. Laserlines 405 nm and 594 nm were used in combination with standard DAPI and Cy5 filter settings. Image processing was carried out with ImageJ 1.5.1 h software extended by the Fiji processing package.

[2] = test system: Her2-overexpressing cell line BT474
Method: as §1, §2, §3

[3] = test system: Her2-overexpressing cell line SKBR3
Method: as §1, §2, §3

Substance: Trastuzumab-Amidate-Cy5
- immunostaining of fixed cells [1]: no staining
- immunostaining of fixed cells [2]: clear localization to the plasma membrane
- immunostaining of fixed cells [3]: clear localization to the plasma membrane
